{"source": "ChEMBL document CHEMBL1122799", "about": "“Preparation of 7-(1,3,4-oxadiazolyl)-6,14-endo-etheno-6,7,8, 14-tetrahydrothebaines and related compounds as potential analgesics” (1984)", "key": {"Rattus norvegicus": {"system": "Rattus norvegicus", "test": "In vivo analgesic activity was determined by rat tail pressure test (RTP) in rat by subcutaneous administration, 30 minutes prior to challenge"}, "Mus musculus": {"system": "Mus musculus", "test": "In vivo analgesic activity determined by Hendershot and Forsaith writhing test (H and F) in mice by subcutaneous administration, 30 minutes prior to challenge"}}}
{"smiles": "COc1ccc2c3c1O[C@H]1[C@@H](O)C=C[C@H]4[C@@H](C2)N(C)CC[C@@]341.COc1ccc2c3c1O[C@H]1[C@@H](O)C=C[C@H]4[C@@H](C2)N(C)CC[C@@]341.O.O=P(O)(O)O.O=P(O)(O)O", "values": [{"measurement": "ED50", "setting": "Rattus norvegicus", "value": 13.5, "unit": "mg/kg"}, {"measurement": "ED50", "setting": "Mus musculus", "value": 5.6, "unit": "mg/kg"}]}
